According to publication PMC7346449:

Target: excitatory amino acid transporter 2 (mouse, endogenous) (mouse (endogenous in primary astrocytes and brain)) (UniProt P43006)
Assay: proximity ligation; cultured primary mouse astrocytes treated with human RBC-EVs at 37 °C for 3 h, fixed; antibody against the C-terminus (intracellular domain) of EAAT2, or against EAAT1, and Syn211 against human α-syn; untreated and dynasore-treated astrocytes as controls

α-synuclein (human, endogenous; carried in erythrocyte-derived extracellular vesicles, and in human brain) (from UniProt P37840 1-140) (natural protein)
percent of astrocytes with proximity ligation products (% of astrocytes): 40
